Results from patent US20130023496A1, “Combination Therapy Comprising A CCR5 Antagonist, A HIV-1 Protease Inhibtior and a Pharmacokinetic Enhancer” (priority 2010, published 2013).

[1] = median, MVC 150 mg QD with ATV/r 300/100 mg QD, Week 2, plasma, 15 patients

In the case of “N-{(1S)-3-[3-(3-isopropyl-5-methyl-4H-1,2,4-triazol-4-yl)-exo-8-azabicyclo[3.2.1]oct-8-yl]-1-phenylpropyl}-4, 4-difluorocyclohexanecarboxamide [maraviroc]”, the “targeted MVC Cavg achieved by all 15 subjects” value (MVC 150 mg QD with ATV/r, Week 2, all 15 subjects) is reported as ≥ 75 ng/mL, the AUC24 [1] is reported as 4330 ng·h/mL and the Cavg [1] is reported as 180 ng/mL. The Cmax [1] was 650 ng/mL and the Cmin [1] was 37.0 ng/mL.
